Key:
Type in all cases: cell-based, human
[1] = test system: NCI-N87; assay: Incucyte proliferation, single agents and combinations, NCI-N87; conditions: NCI-N87, Incucyte 4 days; ebselen oxide 10 μM, lapatinib 10 nM, trastuzumab 10 μg·mL−1, alone or combined
[2] = test system: NCI-N87; assay: Anchorage-independent growth (spheroid assay, ULA plates), NCI-N87; conditions: ebselen oxide 10 μM, lapatinib 10 nM, trastuzumab 10 μg·mL−1, alone or combined
Experimental: 5.10^3 cells/24‐well were seeded in a complete medium in ULA plates (Corning® Costar® (Corning, NY, USA) C LS3473‐24EA) in the presence of indicated compounds. Spheroids were imaged 6–8 days later with a phase‐contrast microscope, and their areas were measured using IMAGEJ software.

[3] = test system: BT474; assay: Incucyte proliferation, single agents and combinations, BT474; conditions: BT474, Incucyte 4 days; ebselen oxide 10 μM, lapatinib 10 nM, trastuzumab 10 μg·mL−1, alone or combined
[4] = test system: SKBR3; assay: Incucyte proliferation, single agents and combinations, SKBR3; conditions: SKBR3, Incucyte 4 days; ebselen oxide 10 μM, lapatinib 10 nM, trastuzumab 10 μg·mL−1, alone or combined

trastuzumab
Reduction/inhibition of cell proliferation [1]: 34% | Reduction of anchorage-independent growth (spheroid assay) [2]: 12% | Reduction/inhibition of cell proliferation [3]: 35% | Reduction/inhibition of cell proliferation [4]: 38%

From article PMC10552892, “Ebselen oxide and derivatives are new allosteric HER2 inhibitors for HER2‐positive cancers” (Molecular Oncology, 2023)
